Legend:
[1] = system: STAT5 phosphorylation in HEL cells (JAK2 V617F mutant); assay: Western blot of STAT5 phosphorylation in HEL cells; assay type: cell-based, Human; details: concentrations up to 75-80 μM after 3-h incubation
[2] = biological target: WT JAK2 JH2 (Homo sapiens (Human), UniProt O60674, F794H/W659A/W777A); assay: Competitive fluorescence polarization (FP) binding assay, WT JAK2 JH2; details: WT JH2 over WT JH1, Table 3

The chains behind the UniProt entries cited, without tags or fusion partners. Residues count along the entry.
UniProt O60674, 536-812 W659A/W777A/F794H: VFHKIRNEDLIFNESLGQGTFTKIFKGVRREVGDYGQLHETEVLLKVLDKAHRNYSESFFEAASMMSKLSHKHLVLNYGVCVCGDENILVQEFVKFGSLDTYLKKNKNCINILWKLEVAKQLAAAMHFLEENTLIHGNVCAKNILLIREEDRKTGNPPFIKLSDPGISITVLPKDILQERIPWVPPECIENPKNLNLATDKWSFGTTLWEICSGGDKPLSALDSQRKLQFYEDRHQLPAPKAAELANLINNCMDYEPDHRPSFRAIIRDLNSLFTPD

Row | Compound | Inhibition of phosphorylation of STAT5, HEL cells, up to 75-80 μM [1] | JH2/JH1 Selectivity [2] [x]
1 | Nc1nc(Oc2ccc(NC(=O)N[C@@H](CC(=O)c3ccccc3)C(=O)O)cc2)c2cc[nH]c2n1 [Cmpd 21, (S)-2-(3-(4-((2-amino-7H-pyrrolo[2,3-d]pyrimidin-4-yl)oxy)phenyl)ureido)-4-oxo-4-phenylbutanoic acid] | no inhibition | 
2 | Nc1nc(Nc2ccc(S(N)(=O)=O)cc2)nn1C(=O)Nc1ccc(-c2ccnc(C(=O)O)c2)cc1 [Compound 6, 4-(4-(5-amino-3-((4-sulfamoylphenyl)amino)-1H-1,2,4-triazole-1-carboxamido)phenyl)picolinic acid] |  | 20
3 | Nc1nc(Nc2ccc(S(N)(=O)=O)cc2)nn1C(=O)Nc1ccc(-c2cc(OCc3ccccc3)cc(C(=O)O)c2)cc1 [Compound 12, 4′-(5-amino-3-((4-sulfamoylphenyl)amino)-1H-1,2,4-triazole-1-carboxamido)-5-(benzyloxy)-[1,1′-biphenyl]-3-carboxylic acid] |  | 45
4 | CNC(=O)c1ccc(Nc2nc(N)n(C(=O)Nc3ccc(-c4cc(OCc5ccccc5)cc(C(=O)O)c4)cc3)n2)cc1 [Compound 14, 4′-(5-amino-3-((4-(methylcarbamoyl)phenyl)amino)-1H-1,2,4-triazole-1-carboxamido)-5-(benzyloxy)-[1,1′-biphenyl]-3-carboxylic acid] |  | 134
